# ChEMBL document CHEMBL4316593, “2-(2-(2,4-dioxopentan-3-ylidene)hydrazineyl)benzonitrile as novel inhibitor of receptor tyrosine kinase and PI3K/AKT/mTOR signaling pathway in glioblastoma” (Eur J Med Chem, 2019)
# Legend:
# [1] = test system: LN-229; experiment: Cytotoxicity against human LN229 cells assessed as reduction in cell proliferation measured after 48 hrs by trypan blue dye-based cell counting analysis; type: functional
# [2] = test system: U-87 MG; experiment: Cytotoxicity against human U87 cells assessed as reduction in cell proliferation measured after 48 hrs by trypan blue dye-based cell counting analysis; type: functional; settings: U-87MG ATCC
structure (smiles),measurement,setting,value
CC(=O)C(=NNc1ccccc1C#N)C(C)=O,Activity,[1],Dose-dependent effect
same,Activity,[2],Dose-dependent effect
